Patent US10689391B2, “Isoxazole analogs as FXR agonists and methods of use thereof” (Enanta Pharmaceuticals, Inc., priority 2017, dated 2020)

Amino acid sequences for entries named in this document (tags omitted).
UniProt Q96RI1, whole entry: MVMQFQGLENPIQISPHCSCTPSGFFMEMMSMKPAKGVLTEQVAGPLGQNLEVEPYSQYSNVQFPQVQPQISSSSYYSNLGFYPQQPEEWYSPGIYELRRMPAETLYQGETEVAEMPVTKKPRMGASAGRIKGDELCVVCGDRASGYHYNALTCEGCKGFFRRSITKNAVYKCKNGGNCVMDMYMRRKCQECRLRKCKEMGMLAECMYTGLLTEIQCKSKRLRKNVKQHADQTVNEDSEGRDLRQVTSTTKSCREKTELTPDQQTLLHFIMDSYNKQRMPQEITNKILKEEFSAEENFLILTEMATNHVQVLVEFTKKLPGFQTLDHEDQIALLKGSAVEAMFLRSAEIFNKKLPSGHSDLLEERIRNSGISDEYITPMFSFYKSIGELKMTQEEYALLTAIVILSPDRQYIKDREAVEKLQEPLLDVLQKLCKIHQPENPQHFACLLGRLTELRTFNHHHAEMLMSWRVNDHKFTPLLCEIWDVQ

Biological target: human FXR (NR1H4) (Homo sapiens, UniProt Q96RI1)
Test: Human FXR (NR1H4) Assay (Gal4 promoter driven luciferase reporter, Indigo Bioscience kit IB00601)
Assay type: cell-based
Conditions: CHO reporter cells expressing human NR1H4

CC(C)Oc1cc(C(=O)O)cc2sc(N3C[C@@H]4CC[C@@H](NCc5c(-c6c(Cl)cccc6Cl)noc5C5CC5)[C@@H]4C3)nc12 (relative stereo)
EC50 (luciferase, 22 hours incubation, potency ranges): 200 to 1000 nM
Efficacy (%) (normalized to CDCA set as 100%): 49%
